The record followed here is patent EP4768477A1 (Yichang Humanwell Pharmaceutical Co., Ltd., priority 2024, dated 2025).

The chains behind the UniProt entries cited, without tags or fusion partners.
UniProt P41146, whole entry: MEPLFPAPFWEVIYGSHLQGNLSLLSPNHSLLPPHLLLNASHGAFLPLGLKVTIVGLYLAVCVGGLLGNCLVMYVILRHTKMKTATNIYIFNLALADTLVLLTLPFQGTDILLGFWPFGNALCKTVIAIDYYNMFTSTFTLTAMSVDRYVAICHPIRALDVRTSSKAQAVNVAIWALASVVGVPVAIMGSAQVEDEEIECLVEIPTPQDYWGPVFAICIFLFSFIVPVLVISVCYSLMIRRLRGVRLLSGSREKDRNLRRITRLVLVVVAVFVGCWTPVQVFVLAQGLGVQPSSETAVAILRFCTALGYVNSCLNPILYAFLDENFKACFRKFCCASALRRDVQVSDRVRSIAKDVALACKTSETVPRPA
UniProt P35372, whole entry: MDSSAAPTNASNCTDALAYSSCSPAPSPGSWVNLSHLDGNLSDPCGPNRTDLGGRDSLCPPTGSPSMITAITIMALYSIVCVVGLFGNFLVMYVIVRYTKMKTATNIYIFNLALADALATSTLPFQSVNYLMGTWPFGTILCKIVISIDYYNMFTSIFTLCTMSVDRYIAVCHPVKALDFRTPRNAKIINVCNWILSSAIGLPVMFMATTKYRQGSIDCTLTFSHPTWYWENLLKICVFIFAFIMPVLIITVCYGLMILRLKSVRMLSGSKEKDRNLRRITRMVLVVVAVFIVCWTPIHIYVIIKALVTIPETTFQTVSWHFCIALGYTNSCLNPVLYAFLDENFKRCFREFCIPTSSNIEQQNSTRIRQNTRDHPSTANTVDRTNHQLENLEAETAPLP

pEC50: −log10 of the molar value.

One assay has as its target hNOPr (Homo sapiens, UniProt P41146). Nature of the assay: Radioligand binding affinity test, [3H]-Nociceptin displacement on receptor cell membranes. To be noted: for Ki: read-out: Ki (nM) of Affinity of opioid receptor hNOPr, 3H-Nociceptin 0.5 nM, cell membranes containing human NOPr.
A further assay addresses hMOR (Homo sapiens, UniProt P35372). Description: Agonistic function, cAMP method, 293-MOR cells. To be noted: read-out: hMOR EC50, forskolin.

What is called Ki is the equilibrium dissociation constant of an inhibitor or competing ligand from its target. By pEC50 is commonly meant the EC50 on a negative log10 scale, so that one unit is a factor of ten. On to `CC(C)C1CCC(N2CCC(N3C(=O)N(CCNS(C)(=O)=O)Cc4cc(F)c(F)cc43)CC2)CC1` (stereo not shown), for which the Ki on hNOPr stood at 1.75 nM. At hMOR, the pEC50 is 7.64.
Turning to `CCS(=O)(=O)NCCN1Cc2cc(F)c(F)cc2N(C2CCN([C@H]3CC[C@@H](C(C)C)CC3)CC2)C1=O` (relative stereo), the Ki on hNOPr is 0.83 nM. For the same compound, at hMOR, the pEC50 was 7.52.
On to `Cc1noc(Cn2c(=O)n(C3CCN([C@H]4CC[C@@H](C(C)C)CC4)CC3)c3cc(F)c(F)cc32)n1`, for which, at hNOPr (ratio of Ki values hKOR/hNOPr), the Selectivity hKOR/hNOPr turned out to be 386. Also, the Selectivity hMOR/hNOPr at hNOPr (ratio of Ki values hMOR/hNOPr) was 5.74. Moreover, the inhibitory constant (Ki) on hNOPr turned out to be 3.01 nM.
